Only a part of the results on these compounds is given; other tests are left out.
Test: pharmacokinetics of the implant system in healthy volunteers with induced fever (Example 7)

## CCC(=O)N(c1ccccc1)C1(COC)CCN(CCc2cccs2)CC1
Absorption from subcutaneous implant 5 micrograms per hour, about 109 mg/ml, healthy volunteers, NONMEM population model
  absorption half-life: 16.2 h
Experimental fever of about 2.5° C. induced by aldesleukin on day 9, implant 5 micrograms per hour
  impact of induced fever on plasma concentration (Cp) of sufentanil: not associated with an undesirable systemic increase
